Measured values reported in patent publication US8450354B2, “Substituted imidazo[1,2-b]pyridazine derivatives, pharmaceutical compositions, and methods of use as β-secretase inhibitors” (High Point Pharmaceuticals, LLC, priority 2010, dated 2013).

Chains of the proteins cited; added tags and fusions are not shown. Residues count along the entry.
UniProt P56817, 46-457 limits assumed: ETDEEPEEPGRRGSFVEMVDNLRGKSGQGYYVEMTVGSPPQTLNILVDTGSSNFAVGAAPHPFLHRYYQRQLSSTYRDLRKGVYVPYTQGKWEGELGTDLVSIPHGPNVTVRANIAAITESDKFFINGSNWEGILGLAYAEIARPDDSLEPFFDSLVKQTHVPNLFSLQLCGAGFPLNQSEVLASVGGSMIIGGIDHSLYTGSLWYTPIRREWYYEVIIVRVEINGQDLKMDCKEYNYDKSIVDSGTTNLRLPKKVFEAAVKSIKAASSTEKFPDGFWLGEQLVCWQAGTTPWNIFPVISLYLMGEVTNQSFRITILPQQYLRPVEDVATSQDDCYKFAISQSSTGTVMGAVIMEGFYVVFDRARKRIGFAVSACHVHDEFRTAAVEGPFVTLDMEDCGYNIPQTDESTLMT

Tests used:
BACE-1 enzyme = BACE-1 enzyme (Homo sapiens, UniProt P56817); test: BACE Fluorescence Resonance Energy Transfer (FRET) Assay; details: read-out: IC50 (μM) FRET assay, pH 4-4.5, 30 min pre-incubation, about 1.5 hours reaction, asterisk = mean
Method: BACE Fluorescence Resonance Energy Transfer (FRET) Assay
In the following assay, the proteolytic activity of BACE is measured by observing cleavage of a fluorescent group from a peptide substrate containing a rhodamine fluorescent donor and a quenching acceptor.
The inhibitory activity of compounds of Formula (I) may be compared to a statine derived control inhibitor STA200 (MP Biomedical Cat. #STA-200). The cleavage reaction occurs when a BACE-1 substrate (Invitrogen, Cat. #P2986) was added to a reaction mixture containing BACE-1 enzyme (R & D Systems, Cat. #931AS) and allowed to proceed for about 1.5 hours. Fluorescence, used as a marker of BACE activity, is monitored using 540 nm excitation and 585 nm emission wavelengths (Envision, Perkin Elmer).
A typical assay reaction contains BACE-1 enzyme-in assay buffer (50 mM sodium acetate, pH 4-4.5, 0.01% CHAPS (3-[(3-Cholamidopropyl)dimethylammonio]-1-propanesulfonate), 0.0125% TritonX-100, 0.006% EDTA) which is pre-incubated for 30 minutes with test compound in 7.5% DMSO. The reaction is initiated with the addition of BACE-1 substrate in assay buffer and allowed to proceed for about 1.5 hours at room temperature. Assays are conducted in black 384-well microtiter plates and scanned at room temperature using 540 nm excitation and 585 nm emission wavelengths.
In some instances, the percent inhibition at a given concentration is reported instead of the IC50.

[1] = tested on: Aβ1-40 secreted from HEK293 cells stably expressing wildtype human APP695 protein (HEK-APPwt cells); proteolytic activity of BACE; test: Aβ Cell Based Assay (Aβ1-40 secretion, ELISA); details: read-out: EC50 (μM) Cell-Based Assay, 6 hours incubation, reduction of Aβ1-40 secretion, asterisk = mean
Method: Aβ Cell Based Assay Procedure
In the following assay, the proteolytic activity of BACE in cells exposed to varying concentrations of a compound of interest is measured by observing the amount of Aβ1-40 secreted from HEK293 cells (Human Embryonic Kidney epithelial cell line) stably expressing wildtype human APP695 protein (HEK-APPwt cells).
HEK-APPwt cells were grown in high glucose DMEM (Dulbecco's Modified Eagles Medium SIGMA Cat. #D5796) supplemented with 25 mM HEPES (4-(2-hydroxyethyl)-1-piperazineethanesulfonic acid) (pH 7.4) (Invitrogen Cat. #15630-114), 0.1 mM NEAA (Non-essential Amino Acids) (BioWhittaker Cat. #13-114E), 10% fetal bovine serum (SIGMA Cat. #F4135) and 250 μg/mL hygromycin (Invitrogen Cat. #10687-010) in T-225 flasks at 37° C. with 5% CO2 and humidity control.
Test compounds were initially prepared in DMSO and diluted with DMEM media containing 2% FBS (Fetal bovine serum). Ten standard compound solutions were prepared having a range of concentrations. The standard compound solutions were used to determine the EC50 of the test compound. The range of concentrations chosen may depend on the compound's predicted potency.
To prepare cells for the assay, a flask containing HEK-APPwt cells were trypsinized briefly (1 mL trypsin), and once the cells detached, 4 mL of 10% FBS-DMEM was added to the flask. The detached cells were centrifuged at 900 rpm for 5 min to form a pellet.
The HEK-APPwt cell pellet was re-suspended with 10 mL DMEM media containing 2% FBS. 80 μL of the cell suspension was added to each well of a 96-well cell culture plate to give 100×10^4 cells/ml. 10 μL of a standard compound solution was added to each well of the 96-well cell culture plate followed by 10 μL of Alamar blue solution. The cells were incubated at 37° C. in a 5% CO2 incubator for 6 hours.
At the end of the incubation, the plates were removed from incubator, and the supernatant was collected. Aβ1-40 concentration in the medium was measured by using a commercial Aβ1-X ELISA kit (IBL, Japan Cat. #27729). Briefly, the ELISA plates were coated with an anti-human Aβ (N)(82E1) mouse IgG monoclonal antibody. A horseradish peroxidase conjugated anti-human Aβ11-28 mouse IgG monoclonal antibody was used for detection. The cell culture supernatant was diluted with EIA buffer+protease inhibitors (kit buffer containing protease inhibitors (1 mL PI/30 mL buffer)). A 100 μL aliquot of the diluted supernatant was added to each well of the ELISA plate and incubated for 6 hrs at 4° C. The ELISA plate was washed 8 times with phosphate buffered saline (PBS) containing 0.05% TWEEN 20.
A 100 μL of detection antibody was then added and incubated for 1 hour at 4° C. The plate was washed 8 times with PBS buffer containing 0.05% Tween 20 followed by addition of 100 μL of the chromogen tetramethylbenzidine (TMB). The plate was incubated in the dark at room temperature for about 30 min and a stop solution (1N H2SO4) was added.
The intensity of the color developed was measured at 450 nm. The optical density at 450 nm (OD450) is proportional to the concentration of human Aβ1-40 secreted by the cell. As a reference, N—[N-(3,5-difluorophenacetyl-L-alanyl)]—S-phenylglycine t-butyl ester (DAPT, a γ-secretase inhibitor) was used to indicate 100% inhibition of […]. Thus, the assay measures the ability of a compound of interest to reduce Aβ1-40 secretion. Compound potency is reported in Table 3 as the EC50 by calculating the percent inhibition at all concentration levels and the data were fit with non-linear curve fitting algorithm using GraphPad Prism.

Row | SMILES | IC50 (BACE-1 enzyme) [µM] | EC50 [1] [µM]
1 | CN(C)c1ccc2nc(C(=O)Nc3nc4cc(-c5cccc(OC(F)(F)F)c5)ccc4[nH]3)cn2n1 | 0.297 | –
2 | O=C(Nc1nc2cc(-c3ccc(Cl)c(C(F)(F)F)c3)ccc2[nH]1)c1cn2nc(Cl)ccc2n1 | 0.368 | –
3 | C[C@H](O)C[C@H](C)Oc1ccc2nc(C(=O)Nc3nc4cc(-c5cccc(C(F)(F)F)c5)ccc4[nH]3)cn2n1 | 0.318 | 1.94
4 | CNc1ccc2nc(C(=O)Nc3nc4cc(-c5cccc(OC(F)(F)F)c5)ccc4[nH]3)cn2n1 | 0.3 | –
5 | CN(C)CCOc1ccc2nc(C(=O)Nc3nc4cc(-c5cccc(C(F)(F)F)c5)ccc4[nH]3)cn2n1 | 0.376 | –
6 | N[C@@H]1CCCN(c2ccc3nc(C(=O)Nc4nc5cc(-c6cccc(C(F)(F)F)c6)ccc5[nH]4)cn3n2)C1 | 0.32 | –
7 | C[C@H](CO)Oc1ccc2nc(C(=O)Nc3nc4cc(-c5cccc(OC(F)(F)F)c5)ccc4[nH]3)cn2n1 | 0.313 | 1.95
8 | O=C(Nc1nc2cc(OCc3ccc(Cl)cc3)ccc2[nH]1)c1cn2nc(Cl)ccc2n1 | 0.286 | –
9 | COc1ccc2nc(C(=O)Nc3nc4cc(-c5cccc(C(F)(F)F)c5)ccc4[nH]3)cn2n1 | 0.255 | –
10 | O=C(Nc1nc2cc(-c3cccc(OC(F)(F)F)c3)ccc2[nH]1)c1cn2nc(OC(CO)CO)ccc2n1 | 0.281 | 3.27
11 | CCCC[C@@H](O)COc1ccc2nc(C(=O)Nc3nc4cc(-c5cccc(C(F)(F)F)c5)ccc4[nH]3)cn2n1 | 0.348 | 0.23
12 | O=C(Nc1nc2cc(OCc3ccccc3)ccc2[nH]1)c1cn2nc(Cl)ccc2n1 | 0.099 | –
13 | COC[C@@H](CO)Oc1ccc2nc(C(=O)Nc3nc4cc(-c5cccc(C(F)(F)F)c5)ccc4[nH]3)cn2n1 | 0.229 | 1.16
14 | CN1CCN(c2ccc3nc(C(=O)Nc4nc5cc(-c6cccc(C(F)(F)F)c6)ccc5[nH]4)cn3n2)CC1 | 0.261 | –

More lines, in order of falling IC50 (BACE-1 enzyme), values ahead:

Row | IC50 (BACE-1 enzyme) [µM] | SMILES | EC50 [1] [µM]
15 | 0.224 | O=C(Nc1nc2cc(-c3cccc(C(F)(F)F)c3)ccc2[nH]1)c1cn2nc(OCC(F)(F)CO)ccc2n1 | 0.26
16 | 0.204 | O=C(Nc1nc2cc(-c3cccc(OC(F)(F)F)c3)ccc2[nH]1)c1cn2nc(OCC3CCOC3)ccc2n1 (stereo not drawn) | 0.44
17 | 0.188 | CC(C)(CO)COc1ccc2nc(C(=O)Nc3nc4cc(-c5cccc(C(F)(F)F)c5)ccc4[nH]3)cn2n1 | 0.8
18 | 0.174 | C[C@@H](F)COc1ccc2nc(C(=O)Nc3nc4cc(-c5cccc(C(F)(F)F)c5)ccc4[nH]3)cn2n1 | –
19 | 0.171 | O=C(Nc1nc2cc(-c3cccc(OC(F)(F)F)c3)ccc2[nH]1)c1cn2nc(SCCO)ccc2n1 | 0.97
20 | 0.132 | O=C(Nc1nc2cc(OCc3ccc(C(F)(F)F)cc3)ccc2[nH]1)c1cn2nc(Cl)ccc2n1 | –
21 | 0.104 | NCCOc1ccc2nc(C(=O)Nc3nc4cc(-c5cccc(OC(F)(F)F)c5)ccc4[nH]3)cn2n1 | –
